Measured values published in patent publication US9688708B2, “Photolabile compounds” (The Trustees of Columbia University In The City of New York, priority 2003, dated 2017).

Assays:
[1] = test system: Retzius (Rz) cells in the ganglion; assay: Intracellular voltage recording of leech ganglion neuron with Xe flash irradiation; details: during the experiments
Procedure: Hirudo medicinalis has a central nerve cord with several ganglia, each one containing about 400 neurons arranged in a known pattern. (W.-R. Schlue et al., 1980, J. Exp. Biol., 82:23-34). An entire ganglion was mounted on a dish. The transmembrane potential for a single cell (a neuron) in the ganglion was recorded by inserting inside the neuron a glass micropipet with a micrometer-sized end, filled with saturated aqueous KCl that acts as a luggin bridge for an Ag/AgCl electrode. Another Ag/AgCl electrode was used as a reference. The signal was taken with an AM-System 1600 amplifier, and the entire setup was covered with a Faraday cage. A 12 bit A/D acquisition card was used to digitize the data using an ad-hoc program written in QuickBasic.
Low Ca^2+-high Mg^2+ saline solution (NaCl, 102 mM; KCl, 4 mM; CaCl2: 1 mM; and MgCl2: 10 mM; Tris base, pH 5.4 adjusted to 7.4) was perfused through the dish. […] A pulsed Xe lamp located under the dish was used to irradiate the solution. UV light was removed using a band-pass filter at 500 nm.
After impaling the cell with an electrode, many experiments were performed on the same cell to ensure reproducibility. […] 300 seconds later, at 5500 s, a light flash was directed to the ganglion.

[Ru(bpy)2(4AP)2]Cl2
stability in the dark (in the dark): stable in the dark | solubility in water (water): very soluble | toxicity on the neuron [1]: Neither toxicity nor a deleterious effect was observed
